# Test results published in patent US6737441B2, “Treatment of helicobacter with isothiocyanates” (priority 2000, dated 2004).
# Key:
# [1] = test system: clarithromycin and/or metronidazole - intermediate or resistant strains of Helicobacter pylori; test: Bacteriostatic activity (MIC) against intermediate or resistant strains; assay type: cell-based
# [2] = test system: amoxicillin/clarithromycin/metronidazole - susceptible strains of Helicobacter pylori; test: Bacteriostatic activity (MIC) against susceptible strains; assay type: cell-based
compound,measurement,setting,value
CC1(C)S[C@@H]2[C@H](NC(=O)[C@H](N)c3ccc(O)cc3)C(=O)N2[C@H]1C(=O)O [Amoxicillin],MIC,[1],0.125 µg/mL
same,MIC,[2],0.125 µg/mL
